We go through two substances from PMC5903125.

Test [1] addresses RCLH1Xg complex (Rba. sphaeroides reaction centre/LH1/PufX core complex, green carotenoids) (Rhodobacter sphaeroides) (UniProt P0C0Y7). Nature of the test: sucrose density gradient ultracentrifugation; complexes purified by the His10-tag on PufM from cells grown dark/semiaerobic; data not shown.
Test [2] addresses RCLH1Xr complex (Rba. sphaeroides reaction centre/LH1/PufX core complex, red carotenoids) (Rhodobacter sphaeroides) (UniProt P0C0Y7). Nature of the test: sucrose density gradient ultracentrifugation; DDM-solubilised (4%) intracytoplasmic membranes on five-step gradients of 20-25% (w/v) sucrose in 20 mM HEPES (pH 8)/0.04% DDM, 20 h, 180 000g, 4 °C; monomer and dimer bands; cells grown dark/semi-aerobic, light/anaerobic, or (PufX-deficient strains) light/anaerobic with 20 mM DMSO.

In turn, “RCLH1Xg complex (Rba. sphaeroides reaction centre/LH1/PufX core complex, green carotenoids) (from UniProt P0C0Y7 1-260; P0C0Y8 1-282; P0C0Y9 1-308; P13402 1-82; P0C0X9 1-58; P0C0Y1 1-49)” yielded a stoichiometry N in test [1] of 2. In test [2], “RCLH1Xr complex (Rba. sphaeroides reaction centre/LH1/PufX core complex, red carotenoids) (from UniProt P0C0Y7 1-260; P0C0Y8 1-282; P0C0Y9 1-308; P13402 1-82; P0C0X9 1-58; P0C0Y1 1-49)” yielded a stoichiometry N of 2.

The stoichiometry N is a count of units in the complex or per binding partner.
